Source: US8093052B2, “Serum-free culture medium for the production of recombinant gonadotropins” (Ares Trading S.A., priority 2005, dated 2012)

Test system: CHO cell line expressing both subunits of human FSH
Test: Total viable cells ratio (TVC ratio) during antioxidant test period
Assay type: cell-based, Chinese Hamster
Conditions: end of test/start of test, >=1.0 = no toxic effect
Procedure: All experiments were performed with a CHO cell line expressing both subunits of human FSH. The produced protein is a dimeric gonadotropin further referred to as rFSH. The alpha subunit corresponds to SwissProt Accession No. P01215 and the beta subunit corresponds to SwissProt Accession No. P01225.
At least 2.4.10^9 viable rFSH-producing cells were transferred to a 15 L bioreactor with an effective working volume of 11 L (newMBR, Zürich) comprising microcarriers. Immediately after seeding followed a batch phase that lasted for two or three days. The bioreactor was then continuously fed with SFM to a dilution rate of 1 day^−1 and to a perfusion rate at 11 L·day)^−1.
The total viable cell concentration is defined as the sum of the concentration of cells attached on microcarriers and the concentration of viable cells in suspension.
The Total Viable Cells Ratio (TVC Ratio) for was calculated as follows: [total viable cell concentration, end of test]/[total viable cell concentration, start of test] wherein the start of test is defined as the day at which a new antioxidant is introduced in the culture, and the end of test is defined as the day before the next antioxidant is introduced in the culture.
The total viable cell concentration, the GCR and the rFSH titers were measured daily.

N[C@@H](CS)C(=O)O [L-cysteine, reference compound]
TVC Ratio (Run 1, 280 mg/L, WD10 to WD20): 8.6 | TVC Ratio (Run 2, 280 mg/L, WD0 to WD20): 6.3 | TVC Ratio (Run 2, 350 mg/L, WD40 to WD50): 1.0
